These results are taken from ChEMBL document CHEMBL1158198, “Indole Alkaloids of Haplophyton crooksii 1” (J Nat Prod, 1996).

By UniProt entry, the sequences of proteins in these tests, tags left out. Where a name states a change or a piece, a line headed by the entry shows the natural chain unless it says otherwise.
UniProt O42275: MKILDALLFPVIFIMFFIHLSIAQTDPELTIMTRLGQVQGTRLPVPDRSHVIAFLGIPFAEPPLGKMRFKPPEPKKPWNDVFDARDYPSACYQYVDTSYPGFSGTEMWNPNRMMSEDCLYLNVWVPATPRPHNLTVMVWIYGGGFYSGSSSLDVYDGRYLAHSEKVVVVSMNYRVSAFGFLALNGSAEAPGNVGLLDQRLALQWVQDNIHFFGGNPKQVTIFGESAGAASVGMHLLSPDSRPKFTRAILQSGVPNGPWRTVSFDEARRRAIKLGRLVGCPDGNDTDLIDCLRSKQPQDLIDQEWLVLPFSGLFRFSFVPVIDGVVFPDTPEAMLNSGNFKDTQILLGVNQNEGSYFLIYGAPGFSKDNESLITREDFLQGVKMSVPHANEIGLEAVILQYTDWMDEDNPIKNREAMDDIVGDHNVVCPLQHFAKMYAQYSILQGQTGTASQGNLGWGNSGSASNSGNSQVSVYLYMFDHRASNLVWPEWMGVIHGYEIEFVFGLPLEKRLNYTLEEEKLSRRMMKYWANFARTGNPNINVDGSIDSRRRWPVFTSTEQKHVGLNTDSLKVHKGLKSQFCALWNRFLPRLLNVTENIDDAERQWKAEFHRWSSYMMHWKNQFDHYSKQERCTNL

For the assay, the target named is Acetylcholinesterase (Electrophorus electricus, UniProt O42275). In words: Inhibition of electric eel AChE.

The IC50 is the concentration that gives 50% inhibition. Low readings indicate greater potency, high ones weaker potency.

`CNC(=O)Oc1ccc2c(c1)[C@]1(C)CCN(C)[C@@H]1N2C` [PHYSOSTIGMINE] displayed an IC50 of 1500 nM.
